From patent publication US10287286B2, “Compounds” (Takeda Pharmaceutical Company Limited, priority 2015, dated 2019)

By UniProt entry, the sequences of proteins in these tests, tags left out.
UniProt Q96KS0, whole entry: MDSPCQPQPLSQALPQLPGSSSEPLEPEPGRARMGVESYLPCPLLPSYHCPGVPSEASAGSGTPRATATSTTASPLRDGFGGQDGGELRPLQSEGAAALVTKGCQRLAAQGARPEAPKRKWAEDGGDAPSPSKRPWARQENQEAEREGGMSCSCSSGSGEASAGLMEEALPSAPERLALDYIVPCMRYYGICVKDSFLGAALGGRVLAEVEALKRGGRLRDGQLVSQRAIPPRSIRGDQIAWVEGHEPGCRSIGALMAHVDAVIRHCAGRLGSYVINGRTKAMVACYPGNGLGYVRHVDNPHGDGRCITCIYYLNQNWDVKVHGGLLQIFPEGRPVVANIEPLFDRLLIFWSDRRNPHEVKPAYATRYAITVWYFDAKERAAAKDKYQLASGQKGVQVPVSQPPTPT

The compounds below were run against PHD1 enzyme (residues 1-407) (Homo sapiens (Human), UniProt Q96KS0) (assay: PHD1 Enzyme Assay (UPLC-MS detection of hydroxylated peptide product)). Settings: 20 nM, 60 min pre-incubation at room temperature.
Assay type: biochemical

Going from N#Cc1ccc(-c2ccnc3ncnn23)cc1F [Example 201, 2-fluoro-4-{[1,2,4]triazolo[1,5-a]pyrimidin-7-yl}benzonitrile] to N#Cc1ccc(-c2cc(N3CCOCC3)cc3ncnn23)cc1F [Example 137, 2-fluoro-4-[7-(morpholin-4-yl)-[1,2,4]triazolo[1,5-a]pyridin-5-yl]benzonitrile], the IC50 falls from 1.12 µM to 0.145 µM (7.7-fold).

N#Cc1ccc(-c2cc(C(=O)NCCc3ccc(Cl)cc3)cc3ncnn23)cc1 [Example 49, N-[2-(4-chlorophenyl)ethyl]-5-(4-cyanophenyl)-[1,2,4]triazolo[1,5-a]pyridine-7-carboxamide] and N#Cc1ccc(-c2cc(C(=O)Nc3ccc(Cl)cc3)cc3ncnn23)cc1 [Example 52, N-(4-chlorophenyl)-5-(4-cyanophenyl)-[1,2,4]triazolo[1,5-a]pyridine-7-carboxamide] are within 1.5-fold of each other in IC50: 0.366 µM for the first, 0.531 µM for the second.

First: N#Cc1ccc(-c2cc(NS(=O)(=O)c3ccccc3)cc3ncnn23)cc1F [Example 149, N-[5-(4-cyano-3-fluorophenyl)-[1,2,4]triazolo[1,5-a]pyridin-7-yl]benzenesulfonamide]
Second: N#Cc1ccc(-c2cc(NC(=O)Nc3ccccc3)cc3ncnn23)cc1F [Example 150, 3-[5-(4-Cyano-3-fluorophenyl)-[1,2,4]triazolo[1,5-a]pyridin-7-yl]-1-phenylurea]
The IC50 of the first is 21-fold higher: 0.252 µM for the first, 0.012 µM for the second.

Cc1cc(C#N)ccc1-c1cc(NC(=O)C2CC2(F)F)cc2ncnn12 (centres unmarked) [Example 258, N-[5-(4-Cyano-2-methylphenyl)-[1,2,4]triazolo[1,5-a]pyridin-7-yl]-2,2-difluorocyclopropane-1-carboxamide] and N#Cc1ccc(-c2cc(NC(=O)C3CC3)cc3ncnn23)c(F)c1 [Example 245, N-[5-(4-Cyano-2-fluorophenyl)-[1,2,4]triazolo[1,5-a]pyridin-7-yl]cyclopropanecarboxamide] are within 1.5-fold of each other in IC50: 0.152 µM for the first, 0.107 µM for the second.

First: Cc1nc(C#N)ccc1-c1c(F)ccc2ncnn12 [Example 229, 5-{6-Fluoro-[1,2,4]triazolo[1,5-a]pyridin-5-yl}-6-methylpyridine-2-carbonitrile]
Second: N#Cc1ccc(-c2cc(Cl)cc3ncnn23)c(F)c1F [Example 234, 4-{7-Chloro-[1,2,4]triazolo[1,5-a]pyridin-5-yl}-2,3-difluorobenzonitrile]
The IC50 of the first is 1.7-fold higher: 3.66 µM for the first, 2.11 µM for the second.

First: N#Cc1ccc(-c2cc(C(=O)NCC3COC3)cc3ncnn23)cc1 [Example 69, 5-(4-cyanophenyl)-N-(oxetan-3-ylmethyl)-[1,2,4]triazolo[1,5-a]pyridine-7-carboxamide]
Second: CN1CCN(CCNC(=O)c2cc(-c3ccc(C#N)cc3)n3ncnc3c2)CC1 [Example 65, 5-(4-cyanophenyl)-N-[2-(4-methylpiperazin-1-yl)ethyl]-[1,2,4]triazolo[1,5-a]pyridine-7-carboxamide]
The IC50 of the first is 2-fold higher: 1.11 µM for the first, 0.551 µM for the second.

Compared with N#Cc1ccc(-c2cc(NC(=O)C3CCOC3)cc3ncnn23)cc1F (centres unmarked) [Example 162, N-[5-(4-cyano-3-fluorophenyl)-[1,2,4]triazolo[1,5-a]pyridin-7-yl]oxolane-3-carboxamide], N#Cc1ccc(-c2cc(NC(=O)CC3CC3)cc3ncnn23)cc1F [Example 169, N-[5-(4-cyano-3-fluorophenyl)-[1,2,4]triazolo[1,5-a]pyridin-5-yl]-2-cyclopropylacetamide] is 2.4-fold lower in IC50: 0.117 µM for the first, 0.049 µM for the second. The second is the more potent here.

COc1cccc(CCNC(=O)c2cc(-c3ccc(C#N)cc3)n3ncnc3c2)c1 [Example 50, 5-(4-cyanophenyl)-N-[2-(3-methoxyphenyl)ethyl]-[1,2,4]triazolo[1,5-a]pyridine-7-carboxamide] and N#Cc1ccc(-c2cc(C(=O)Nc3cccc(Cl)c3)cc3ncnn23)cc1 [Example 51, N-(3-chlorophenyl)-5-(4-cyanophenyl)-[1,2,4]triazolo[1,5-a]pyridine-7-carboxamide] are within 1.5-fold of each other in IC50: 0.927 µM for the first, 0.978 µM for the second.

First: N#Cc1ccc(-c2cc(N3CCCC3C3CC3)nc3ncnn23)cc1 (centres unmarked) [Example 93, 4-[5-(2-cyclopropylpyrrolidin-1-yl)-[1,2,4]triazolo[1,5-a]pyrimidin-7-yl]benzonitrile]
Second: N#Cc1ccc(-c2cc(NCC3CC3)nc3ncnn23)cc1 [Example 84, 4-{5-[(cyclopropylmethyl)amino]-[1,2,4]triazolo[1,5-a]pyrimidin-7-yl}benzonitrile]
The IC50 of the first is 26-fold higher: 0.129 µM for the first, 0.005 µM for the second. The second is the more potent here.

N#Cc1ccc(-c2cc(NC(=O)CN3CCC3)cc3ncnn23)cc1 [Example 180, 2-(Azetidin-1-yl)-N-[5-(4-cyanophenyl)-[1,2,4]triazolo[1,5-a]pyridin-7-yl]acetamide] and N#Cc1ccc(-c2cc(NC(=O)C3CC3)cc3ncnn23)cc1 [Example 122, N-[5-(4-cyanophenyl)-[1,2,4]triazolo[1,5-a]pyridin-7-yl]cyclopropanecarboxamide] are within 1.5-fold of each other in IC50: 0.079 µM for the first, 0.07 µM for the second.

N#Cc1ccc(-c2cc(OCCN3CCCC3)cc3ncnn23)cc1F [Example 130, 2-fluoro-4-{7-[2-(pyrrolidin-1-yl)ethoxy]-[1,2,4]triazolo[1,5-a]pyridin-5-yl}benzonitrile] and N#Cc1ccc(-c2cc(C3CC3)cc3ncnn23)cc1 [Example 42, 4-{7-Cyclopropyl-[1,2,4]triazolo[1,5-a]pyridin-5-yl}benzonitrile] are within 1.5-fold of each other in IC50: 0.139 µM for the first, 0.138 µM for the second.

Compared with N#Cc1ccc(-c2cc(NCc3ccccc3)cc3ncnn23)cc1 [Example 114, 4-[7-(benzylamino)-[1,2,4]triazolo[1,5-a]pyridin-5-yl]benzonitrile], N#Cc1ccc(-c2cc(CO)cc3ncnn23)cc1 [Example 39, 4-(7-(hydroxymethyl)-[1,2,4]triazolo[1,5-a]pyridin-5-yl)benzonitrile] is 6.8-fold higher in IC50: 0.033 µM for the first, 0.223 µM for the second. The first is the more potent here.

COc1cc(-c2cccc3ncnn23)ccc1Cl [Example 213, 5-(4-Chloro-3-methoxyphenyl)-[1,2,4]triazolo[1,5-a]pyridine] and C#Cc1ccc(-c2cccc3ncnn23)cc1 [Example 182, 5-(4-Ethynylphenyl)-[1,2,4]triazolo[1,5-a]pyridine] are within 1.5-fold of each other in IC50: 7.14 µM for the first, 5.4 µM for the second.

First: N#Cc1ccc(-c2cc(NCCN3CCCC3=O)nc3ncnn23)cc1 [Example 81, 4-(5-{[2-(2-oxopyrrolidin-1-yl)ethyl]amino}-[1,2,4]triazolo[1,5-a]pyrimidin-7-yl)benzonitrile]
Second: CN(C)CCCNc1cc(-c2ccc(C#N)cc2)n2ncnc2n1 [Example 88, 4-(5-{[3-(dimethylamino)propyl]amino}-[1,2,4]triazolo[1,5-a]pyrimidin-7-yl)benzonitrile]
The IC50 of the first is 30-fold higher: 0.884 µM for the first, 0.029 µM for the second. The second is the more potent here.

First: N#Cc1ccc(-c2cc(CNCC(F)(F)F)cc3ncnn23)cc1 [Example 184, 4-(7-{[(2,2,2-trifluoroethyl)amino]methyl}-[1,2,4]triazolo[1,5-a]pyridin-5-yl)benzonitrile]
Second: CC(=O)Nc1cc(-c2ccc(C#N)cc2F)n2ncnc2c1 [Example 244, N-[5-(4-Cyano-2-fluorophenyl)-[1,2,4]triazolo[1,5-a]pyridin-7-yl]acetamide]
The IC50 of the first is 6.6-fold higher: 0.87 µM for the first, 0.131 µM for the second. The second is the more potent here.

Going from Cc1cc(C#N)ccc1-c1cc(NCC2CC2)nc2ncnn12 [Example 256, 4-{5-[(Cyclopropylmethyl)amino]-[1,2,4]triazolo[1,5-a]pyrimidin-7-yl}-3-methylbenzonitrile] to CC(=O)N1CCCC(Nc2cc(-c3ccc(C#N)cc3)n3ncnc3n2)C1 (centres unmarked) [Example 79, 4-{5-[(1-acetylpiperidin-3-yl)amino]-[1,2,4]triazolo[1,5-a]pyrimidin-7-yl}benzonitrile], the IC50 rises from 0.092 µM to 0.275 µM (3-fold). The first is the more potent here.
